Here are results for 27 compounds from patent US10047096B2, “Substituted pyridobenzodiazepinone-derivatives and use thereof” (Bayer Pharma Aktiengesellschaft, priority 2014, dated 2018).

Amino acid sequences for entries named in this document (tags omitted). A change or cut given only in a name is not applied to a line headed by its entry.
UniProt P09619: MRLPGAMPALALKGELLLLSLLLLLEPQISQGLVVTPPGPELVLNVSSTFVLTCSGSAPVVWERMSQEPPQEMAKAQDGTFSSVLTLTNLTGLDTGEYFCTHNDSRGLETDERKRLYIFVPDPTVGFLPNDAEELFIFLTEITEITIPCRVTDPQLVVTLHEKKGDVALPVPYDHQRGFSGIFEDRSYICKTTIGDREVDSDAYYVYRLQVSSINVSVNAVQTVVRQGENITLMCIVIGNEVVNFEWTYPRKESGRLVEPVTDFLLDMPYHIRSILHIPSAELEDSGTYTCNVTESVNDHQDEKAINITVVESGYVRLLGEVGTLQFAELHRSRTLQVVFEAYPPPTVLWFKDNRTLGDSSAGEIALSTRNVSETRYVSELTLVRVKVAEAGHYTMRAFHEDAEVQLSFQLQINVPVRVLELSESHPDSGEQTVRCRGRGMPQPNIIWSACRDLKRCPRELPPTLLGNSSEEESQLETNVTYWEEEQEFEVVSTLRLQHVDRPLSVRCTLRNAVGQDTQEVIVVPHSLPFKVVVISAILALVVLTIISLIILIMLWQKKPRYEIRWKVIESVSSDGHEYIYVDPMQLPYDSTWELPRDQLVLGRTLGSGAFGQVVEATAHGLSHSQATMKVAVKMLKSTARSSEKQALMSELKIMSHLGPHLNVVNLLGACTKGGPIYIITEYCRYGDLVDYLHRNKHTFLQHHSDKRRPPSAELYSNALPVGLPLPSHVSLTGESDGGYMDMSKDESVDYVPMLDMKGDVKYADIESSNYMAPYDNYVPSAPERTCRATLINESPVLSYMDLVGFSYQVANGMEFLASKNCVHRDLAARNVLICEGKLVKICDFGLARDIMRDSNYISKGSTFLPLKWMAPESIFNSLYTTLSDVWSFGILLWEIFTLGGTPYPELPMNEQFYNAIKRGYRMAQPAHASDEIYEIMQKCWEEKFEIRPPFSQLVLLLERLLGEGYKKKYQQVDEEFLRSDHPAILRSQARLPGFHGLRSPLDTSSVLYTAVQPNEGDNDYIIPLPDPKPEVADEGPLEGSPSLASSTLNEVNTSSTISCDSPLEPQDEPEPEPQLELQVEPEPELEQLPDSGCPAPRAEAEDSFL

The experiment concerns the target human PDGFRβ (Homo sapiens (Human), UniProt P09619). The experiment is described as follows: PDGFRβ kinase assay (PDGFRβ-HTRF). Type of experiment: biochemical. As to conditions: 10 μM ATP; some mean values from multiple determinations. As for the experimental part: The PDGFRβ-inhibitory activity of the inventive compounds was determined in the PDGFRβ-HTRF assay described hereinafter.
The IC50 values were calculated by a 4-parameter fit.

On to `Cc1cc(F)c(Nc2ccnc3c2C(=O)Nc2cc(CN4CCCC(CCO)C4)ccc2N3)cc1O` (single isomer, unassigned; ent-4) [Example 159, ent-4-[(2-Fluoro-5-hydroxy-4-methylphenyl)amino]-8-{[3-(2-hydroxyethyl)piperidin-1-yl]methyl}-6,11-dihydro-5H-pyrido[2,3-b][1,5]benzodiazepin-5-one (Enantiomer 2)], for which the IC50 (as a rule, the concentration needed to halve the response being measured) worked out at 1.28 nM. The same measure for `Cc1cc(F)c(Nc2ccnc3c2C(=O)Nc2cc(C(=O)N4CCC(O)C4)ccc2N3)cc1O` (racemic) [Example 86, rac-4-[(2-Fluoro-5-hydroxy-4-methylphenyl)amino]-8-[(3-hydroxypyrrolidin-1-yl)carbonyl]-6,11-dihydro-5H-pyrido[2,3-b][1,5]benzodiazepin-5-one]: 8.61 nM. For `Cc1cc(F)c(Nc2ccnc3c2C(=O)Nc2cc(CN4CCC[C@H](O)C4)ccc2N3)cc1O` [Example 223, 4-[(2-Fluoro-5-hydroxy-4-methylphenyl)amino]-8-{[(3S)-3-hydroxypiperidin-1-yl]methyl}-6,11-dihydro-5H-pyrido[2,3-b][1,5]benzodiazepin-5-one] the value was 1.01 nM; for `Cc1ccc(O)cc1Nc1ccnc2c1C(=O)Nc1cc(CN[C@H](CO)c3ccccc3)ccc1N2` [Example 128], 3.6 nM; for `Cc1ccc(O)cc1Nc1ccnc2c1C(=O)Nc1cc(CN[C@@H](CO)C(C)C)ccc1N2` [Example 150], 1.18 nM. For `Cc1ccc(O)cc1Nc1ccnc2c1C(=O)Nc1cc(CNCc3ccccc3F)ccc1N2` [Example 121] the value was 5.74 nM; for `Cc1cc(F)c(Nc2ccnc3c2C(=O)Nc2cc(CN4CCCC(O)C4)ccc2N3)cc1O` (single isomer, unassigned; ent-4) [Example 71, ent-4-[(2-Fluoro-5-hydroxy-4-methylphenyl)amino]-8-[(3-hydroxypiperidin-1-yl)methyl]-6,11-dihydro-5H-pyrido[2,3-b][1,5]benzodiazepin-5-one (Enantiomer 2)], 1.16 nM.

In the case of `Cc1ccc(O)cc1Nc1ccnc2c1C(=O)Nc1cc(CNC(CO)c3ccccc3)ccc1N2` (stereo not drawn) [Example 106], the half-maximal inhibitory concentration (IC50) was 3.86 nM. For `Cc1cc(F)c(Nc2ccnc3c2C(=O)Nc2cc(CN4CC[C@@H](O)C4)ccc2N3)cc1O` [Example 208, 4-[(2-Fluoro-5-hydroxy-4-methylphenyl)amino]-8-{[(3R)-3-hydroxypyrrolidin-1-yl]methyl}-6,11-dihydro-5H-pyrido[2,3-b][1,5]benzodiazepin-5-one], half-maximal inhibition (IC50) required 1.03 nM. The same measure for `Cc1cc(F)c(Nc2ccnc3c2C(=O)Nc2cc(CN4CC(O)C(NCCO)C4)ccc2N3)cc1O` (stereo not drawn) [Example 91, 4-[(2-Fluoro-5-hydroxy-4-methylphenyl)amino]-8-({3-hydroxy-4-[(2-hydroxyethyl)amino]pyrrolidin-1-yl}methyl)-6,11-dihydro-5H-pyrido[2,3-b][1,5]benzodiazepin-5-one]: 1.66 nM; for `Cc1cc(F)c(Nc2ccnc3c2C(=O)Nc2cc(CN4CC[C@H](O)C4)ccc2N3)cc1O` [Example 207, 4-[(2-Fluoro-5-hydroxy-4-methylphenyl)amino]-8-{[(3S)-3-hydroxypyrrolidin-1-yl]methyl}-6,11-dihydro-5H-pyrido[2,3-b][1,5]benzodiazepin-5-one]: 0.995 nM; for `Cc1cc(F)c(Nc2ccnc3c2C(=O)Nc2cc(CN4CCCC(O)C4)ccc2N3)cc1O` (racemic) [Example 69, rac-4-[(2-Fluoro-5-hydroxy-4-methylphenyl)amino]-8-[(3-hydroxypiperidin-1-yl)methyl]-6,11-dihydro-5H-pyrido[2,3-b][1,5]benzodiazepin-5-one]: 0.985 nM. The same measure for `COc1ccccc1CNCc1ccc2c(c1)NC(=O)c1c(Nc3cc(O)ccc3C)ccnc1N2` [Example 108]: 2.87 nM; for `Cc1cc(F)c(Nc2ccnc3c2C(=O)Nc2cc(CN4CCC(CCO)C4)ccc2N3)cc1O` (racemic) [Example 182, rac-4-[(2-Fluoro-5-hydroxy-4-methylphenyl)amino]-8-{[3-(2-hydroxyethyl)pyrrolidin-1-yl]methyl}-6,11-dihydro-5H-pyrido[2,3-b][1,5]benzodiazepin-5-one]: 1.62 nM.

`Cc1cc(F)c(Nc2ccnc3c2C(=O)Nc2cc(CNC(C)CO)ccc2N3)cc1O` (racemic) [Example 168, rac-4-[(2-Fluoro-5-hydroxy-4-methylphenyl)amino]-8-{[(1-hydroxypropan-2-yl)amino]methyl}-6,11-dihydro-5H-pyrido[2,3-b][1,5]benzodiazepin-5-one] came in with a half-maximal inhibitory concentration (IC50) of 1.9 nM. For `Cc1cc(F)c(Nc2ccnc3c2C(=O)Nc2cc(CN4CCC(C)(O)C(C)C4)ccc2N3)cc1O` (stereo not drawn) [Example 165, 4-[(2-Fluoro-5-hydroxy-4-methylphenyl)amino]-8-[(4-hydroxy-3,4-dimethylpiperidin-1-yl)methyl]-6,11-dihydro-5H-pyrido[2,3-b][1,5]benzodiazepin-5-one] the value was 4.61 nM; for `Cc1cc(F)c(Nc2ccnc3c2C(=O)Nc2cc(CN4CCC[C@@H](O)C4)ccc2N3)cc1O` [Example 224, 4-[(2-Fluoro-5-hydroxy-4-methylphenyl)amino]-8-{[(3R)-3-hydroxypiperidin-1-yl]methyl}-6,11-dihydro-5H-pyrido[2,3-b][1,5]benzodiazepin-5-one], 1.63 nM; for `Cc1cc(F)c(Nc2ccnc3c2C(=O)Nc2cc(CN4CCCC(O)C4)ccc2N3)cc1O` (single isomer, unassigned; ent-4) [Example 70, ent-4-[(2-Fluoro-5-hydroxy-4-methylphenyl)amino]-8-[(3-hydroxypiperidin-1-yl)methyl]-6,11-dihydro-5H-pyrido[2,3-b][1,5]benzodiazepin-5-one (Enantiomer 1)], 1.38 nM.

In turn, `Cc1cc(F)c(Nc2ccnc3c2C(=O)Nc2cc(CN4CCCC(C)(O)C4)ccc2N3)cc1O` (racemic) [Example 88, rac-4-[(2-Fluoro-5-hydroxy-4-methylphenyl)amino]-8-[(3-hydroxy-3-methylpiperidin-1-yl)methyl]-6,11-dihydro-5H-pyrido[2,3-b][1,5]benzodiazepin-5-one] registered an IC50 of 1.7 nM. The same measure for `Cc1cc(F)c(Nc2ccnc3c2C(=O)Nc2cc(CN4CCC(CCO)CC4)ccc2N3)cc1O` [Example 163, 4-[(2-Fluoro-5-hydroxy-4-methylphenyl)amino]-8-{[4-(2-hydroxyethyl)piperidin-1-yl]methyl}-6,11-dihydro-5H-pyrido[2,3-b][1,5]benzodiazepin-5-one]: 3.03 nM; for `Cc1cc(F)c(Nc2ccnc3c2C(=O)Nc2cc(CN4CCCC(Oc5ccccc5)C4)ccc2N3)cc1O` (racemic) [Example 72, rac-4-[(2-Fluoro-5-hydroxy-4-methylphenyl)amino]-8-[(3-phenoxypiperidin-1-yl)methyl]-6,11-dihydro-5H-pyrido[2,3-b][1,5]benzodiazepin-5-one]: 9.59 nM; for `Cc1ccc(O)cc1Nc1ccnc2c1C(=O)Nc1cc(CNC3(C)CCC3)ccc1N2` [Example 134]: 2.82 nM. For `Cc1cc(F)c(Nc2ccnc3c2C(=O)Nc2cc(CN4CCC(O)C4)ccc2N3)cc1O` (racemic) [Example 65, rac-4-[(2-Fluoro-5-hydroxy-4-methylphenyl)amino]-8-[(3-hydroxypyrrolidin-1-yl)methyl]-6,11-dihydro-5H-pyrido[2,3-b][1,5]benzodiazepin-5-one] the value was 1.05 nM. As to `CCN(CCO)Cc1ccc2c(c1)NC(=O)c1c(Nc3cc(O)c(Cl)cc3F)ccnc1N2` [Example 90, 4-[(4-Chloro-2-fluoro-5-hydroxyphenyl)amino]-8-{[ethyl(2-hydroxyethyl)amino]methyl}-6,11-dihydro-5H-pyrido[2,3-b][1,5]benzodiazepin-5-one], the midpoint of inhibition, the IC50, lay at 0.793 nM. The same measure for `Cc1cc(F)c(Nc2ccnc3c2C(=O)Nc2cc(CN4CCCC(OCC5CCC5)C4)ccc2N3)cc1O` (racemic) [Example 60, rac-8-{[3-(Cyclobutylmethoxy)piperidin-1-yl]methyl}-4-[(2-fluoro-5-hydroxy-4-methylphenyl)amino]-6,11-dihydro-5H-pyrido[2,3-b][1,5]benzodiazepin-5-one]: 3.83 nM.

The compound `CCN(CC)C(=O)COC1CCCN(Cc2ccc3c(c2)NC(=O)c2c(Nc4cc(O)c(C)cc4F)ccnc2N3)C1` (racemic) [Example 61, rac-N,N-Diethyl-2-{[1-({4-[(2-fluoro-5-hydroxy-4-methylphenyl)amino]-5-oxo-6,11-dihydro-5H-pyrido[2,3-b][1,5]benzodiazepin-8-yl}methyl)piperidin-3-yl]oxy}acetamide] returned an IC50 of 4.55 nM. For `Cc1cc(F)c(Nc2ccnc3c2C(=O)Nc2cc(CN4CCCC(CCO)C4)ccc2N3)cc1O` (single isomer, unassigned; ent-4) [Example 158, ent-4-[(2-Fluoro-5-hydroxy-4-methylphenyl)amino]-8-{[3-(2-hydroxyethyl)piperidin-1-yl]methyl}-6,11-dihydro-5H-pyrido[2,3-b][1,5]benzodiazepin-5-one (Enantiomer 1)] the value was 1.16 nM.
